Test [1] has as its target Serine/threonine-protein kinase pim-1 (Homo sapiens) (UniProt P11309). The experiment in a line: Inhibition of PIM1 (unknown origin) at 25 uM by scanEDGE kinase assay relative to control.
Test [2] deals with Tyrosine-protein kinase ABL1 (Homo sapiens, UniProt P00519). The experiment in a line: Inhibition of ABL1 (unknown origin) at 25 uM by scanEDGE kinase assay relative to control.
The target in test [3] is NUAK family SNF1-like kinase 2 (Homo sapiens) (UniProt Q9H093). The experiment in a line: Inhibition of SNARK (unknown origin) at 25 uM by scanEDGE kinase assay relative to control.
In test [4] the test system is Epidermal growth factor receptor (Homo sapiens), P00533 [L858R]. The experiment in a line: Inhibition of EGFR L858R mutant (unknown origin) at 25 uM by scanEDGE kinase assay relative to control.
Test [5] addresses Epidermal growth factor receptor (Homo sapiens) (UniProt P00533). The experiment in a line: Inhibition of EGFR (unknown origin) at 25 uM by scanEDGE kinase assay relative to control.
The target in test [6] is Rho-associated protein kinase 2 (Homo sapiens) (UniProt O75116). The experiment in a line: Inhibition of ROCK2 (unknown origin) at 25 uM by scanEDGE kinase assay relative to control.
Test [7] addresses High affinity nerve growth factor receptor (Homo sapiens, UniProt P04629). The experiment in a line: Inhibition of TRKA (unknown origin) at 25 uM by scanEDGE kinase assay relative to control.
Test [8] addresses MAP/microtubule affinity-regulating kinase 3 (Homo sapiens) (UniProt P27448). The experiment in a line: Inhibition of MARK3 (unknown origin) at 25 uM by scanEDGE kinase assay relative to control.
In test [9] the target is Non-receptor tyrosine-protein kinase TYK2 (Homo sapiens) (UniProt P29597). The experiment in a line: Inhibition of TYK2 (unknown origin) at 25 uM by scanEDGE kinase assay relative to control.
Test [10] has as its target Mast/stem cell growth factor receptor Kit (Homo sapiens) (UniProt P10721). The experiment in a line: Inhibition of KIT (unknown origin) at 25 uM by scanEDGE kinase assay relative to control.
Test [11] addresses ALK tyrosine kinase receptor (Homo sapiens) (UniProt Q9UM73). The experiment in a line: Inhibition of ALK (unknown origin) at 25 uM by scanEDGE kinase assay relative to control.
The subject of test [12] is Tyrosine-protein kinase ABL1 (Homo sapiens), P00519 [E255K]. The experiment in a line: Inhibition of ABL1 E255K mutant (unknown origin) at 25 uM by scanEDGE kinase assay relative to control.
In test [13] the target is Macrophage colony-stimulating factor 1 receptor (Homo sapiens) (UniProt P07333). The experiment in a line: Inhibition of CSF1R (unknown origin) at 25 uM by scanEDGE kinase assay relative to control.
Test [14] has as its target Focal adhesion kinase 1 (Homo sapiens) (UniProt Q05397). The experiment in a line: Inhibition of FAK (unknown origin) at 25 uM by scanEDGE kinase assay relative to control.
Test [15] addresses Ephrin type-A receptor 2 (Homo sapiens) (UniProt P29317). The experiment in a line: Inhibition of EPHA2 (unknown origin) at 25 uM by scanEDGE kinase assay relative to control.
In test [16] the target is Proto-oncogene tyrosine-protein kinase Src (Homo sapiens, UniProt P12931). The experiment in a line: Inhibition of SRC (unknown origin) at 25 uM by scanEDGE kinase assay relative to control.
Test [17] concerns the target Tyrosine-protein kinase JAK3 (Homo sapiens) (UniProt P52333). The experiment in a line: Inhibition of JAK3 (unknown origin) at 25 uM by scanEDGE kinase assay relative to control.
In test [18] the target is Receptor-type tyrosine-protein kinase FLT3 (Homo sapiens, UniProt P36888). The experiment in a line: Inhibition of FLT3 (unknown origin) at 25 uM relative to control.
Test [19] addresses Tyrosine-protein kinase JAK2 (Homo sapiens, UniProt O60674). The experiment in a line: Inhibition of JAK2 (unknown origin) at 25 uM by scanEDGE kinase assay relative to control.
Test [20] has as its target Platelet-derived growth factor receptor beta (Homo sapiens) (UniProt P09619). The experiment in a line: Inhibition of PDGFRB (unknown origin) at 25 uM by scanEDGE kinase assay relative to control.
Test [21] concerns the target MAP kinase-activated protein kinase 2 (Homo sapiens, UniProt P49137). The experiment in a line: Inhibition of MK2 (unknown origin) at 25 uM relative to control.

Sequences of proteins named here, by UniProt entry; tags and fusion partners are left off. A change or cut given only in a name is not applied to a line headed by its entry.
UniProt P00519, whole entry: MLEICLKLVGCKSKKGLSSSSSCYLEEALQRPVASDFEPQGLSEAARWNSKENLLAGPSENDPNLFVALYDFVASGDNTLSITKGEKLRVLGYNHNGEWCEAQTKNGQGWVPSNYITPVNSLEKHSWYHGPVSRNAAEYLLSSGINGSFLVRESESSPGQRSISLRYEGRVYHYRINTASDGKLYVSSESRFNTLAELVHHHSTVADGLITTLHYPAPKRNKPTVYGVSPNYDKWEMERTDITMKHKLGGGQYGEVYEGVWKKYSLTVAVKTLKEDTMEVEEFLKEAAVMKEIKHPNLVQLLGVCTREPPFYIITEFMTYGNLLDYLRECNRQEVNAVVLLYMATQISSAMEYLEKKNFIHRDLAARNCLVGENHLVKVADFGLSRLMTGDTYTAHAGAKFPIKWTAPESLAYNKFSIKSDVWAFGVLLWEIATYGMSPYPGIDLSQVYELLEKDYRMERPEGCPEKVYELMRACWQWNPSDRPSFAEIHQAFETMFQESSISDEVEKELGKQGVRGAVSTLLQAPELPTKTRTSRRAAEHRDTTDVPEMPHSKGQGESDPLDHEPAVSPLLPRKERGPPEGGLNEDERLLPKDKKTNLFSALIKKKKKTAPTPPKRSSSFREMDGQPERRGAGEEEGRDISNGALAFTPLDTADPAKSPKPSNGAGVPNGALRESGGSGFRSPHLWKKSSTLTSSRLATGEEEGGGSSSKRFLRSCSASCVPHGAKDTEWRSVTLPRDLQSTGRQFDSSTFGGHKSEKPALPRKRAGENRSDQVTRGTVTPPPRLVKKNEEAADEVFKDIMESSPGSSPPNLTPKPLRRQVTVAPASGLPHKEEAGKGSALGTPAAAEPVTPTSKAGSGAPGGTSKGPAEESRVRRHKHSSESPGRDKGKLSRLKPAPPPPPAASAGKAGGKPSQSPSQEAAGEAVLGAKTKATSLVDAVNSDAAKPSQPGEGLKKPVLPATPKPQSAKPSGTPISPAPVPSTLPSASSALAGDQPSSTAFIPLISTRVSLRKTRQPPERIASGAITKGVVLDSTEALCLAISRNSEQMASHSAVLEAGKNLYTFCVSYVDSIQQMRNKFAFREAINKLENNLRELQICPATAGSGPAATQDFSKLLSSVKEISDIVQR
UniProt P00519, whole entry E255K: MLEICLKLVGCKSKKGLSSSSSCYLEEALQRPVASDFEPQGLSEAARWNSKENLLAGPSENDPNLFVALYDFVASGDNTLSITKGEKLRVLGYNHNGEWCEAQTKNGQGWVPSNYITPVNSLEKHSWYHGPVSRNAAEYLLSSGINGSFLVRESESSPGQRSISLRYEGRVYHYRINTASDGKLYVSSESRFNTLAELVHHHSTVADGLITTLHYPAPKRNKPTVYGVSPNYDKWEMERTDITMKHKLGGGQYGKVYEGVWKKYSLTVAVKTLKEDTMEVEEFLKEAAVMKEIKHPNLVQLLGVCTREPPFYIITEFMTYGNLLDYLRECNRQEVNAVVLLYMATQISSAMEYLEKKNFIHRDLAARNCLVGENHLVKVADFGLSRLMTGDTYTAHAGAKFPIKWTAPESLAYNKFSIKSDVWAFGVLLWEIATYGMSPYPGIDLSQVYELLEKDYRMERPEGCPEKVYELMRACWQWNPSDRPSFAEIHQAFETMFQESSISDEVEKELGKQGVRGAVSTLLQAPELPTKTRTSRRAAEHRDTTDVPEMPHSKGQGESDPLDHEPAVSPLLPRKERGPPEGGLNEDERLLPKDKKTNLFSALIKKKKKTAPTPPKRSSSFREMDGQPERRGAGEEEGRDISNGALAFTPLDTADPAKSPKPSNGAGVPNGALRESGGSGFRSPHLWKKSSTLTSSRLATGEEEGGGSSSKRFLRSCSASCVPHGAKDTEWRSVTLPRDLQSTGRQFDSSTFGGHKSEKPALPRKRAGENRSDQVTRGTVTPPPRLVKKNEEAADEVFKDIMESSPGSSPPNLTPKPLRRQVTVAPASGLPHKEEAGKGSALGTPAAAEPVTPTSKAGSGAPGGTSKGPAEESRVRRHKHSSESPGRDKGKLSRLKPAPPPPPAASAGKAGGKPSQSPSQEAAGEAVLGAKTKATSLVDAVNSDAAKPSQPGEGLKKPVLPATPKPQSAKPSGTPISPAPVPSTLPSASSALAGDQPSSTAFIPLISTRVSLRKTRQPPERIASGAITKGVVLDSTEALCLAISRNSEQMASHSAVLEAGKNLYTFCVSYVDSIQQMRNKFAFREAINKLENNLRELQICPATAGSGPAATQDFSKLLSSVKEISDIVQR
UniProt Q9H093: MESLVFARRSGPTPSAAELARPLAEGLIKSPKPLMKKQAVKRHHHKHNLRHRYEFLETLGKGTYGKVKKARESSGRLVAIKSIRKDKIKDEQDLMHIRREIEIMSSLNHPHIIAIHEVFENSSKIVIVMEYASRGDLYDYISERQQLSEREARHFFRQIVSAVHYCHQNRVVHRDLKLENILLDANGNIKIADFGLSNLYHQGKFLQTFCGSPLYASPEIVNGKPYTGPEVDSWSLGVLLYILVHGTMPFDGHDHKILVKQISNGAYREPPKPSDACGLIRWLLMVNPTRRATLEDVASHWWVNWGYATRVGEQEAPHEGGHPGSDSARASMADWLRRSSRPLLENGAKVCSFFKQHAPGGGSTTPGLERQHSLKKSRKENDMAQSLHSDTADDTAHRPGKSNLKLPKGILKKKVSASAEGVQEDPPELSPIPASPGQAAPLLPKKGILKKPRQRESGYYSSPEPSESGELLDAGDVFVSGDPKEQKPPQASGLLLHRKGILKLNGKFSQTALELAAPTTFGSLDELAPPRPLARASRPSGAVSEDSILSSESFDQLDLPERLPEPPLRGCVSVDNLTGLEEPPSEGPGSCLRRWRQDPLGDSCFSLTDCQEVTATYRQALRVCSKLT
UniProt O75116: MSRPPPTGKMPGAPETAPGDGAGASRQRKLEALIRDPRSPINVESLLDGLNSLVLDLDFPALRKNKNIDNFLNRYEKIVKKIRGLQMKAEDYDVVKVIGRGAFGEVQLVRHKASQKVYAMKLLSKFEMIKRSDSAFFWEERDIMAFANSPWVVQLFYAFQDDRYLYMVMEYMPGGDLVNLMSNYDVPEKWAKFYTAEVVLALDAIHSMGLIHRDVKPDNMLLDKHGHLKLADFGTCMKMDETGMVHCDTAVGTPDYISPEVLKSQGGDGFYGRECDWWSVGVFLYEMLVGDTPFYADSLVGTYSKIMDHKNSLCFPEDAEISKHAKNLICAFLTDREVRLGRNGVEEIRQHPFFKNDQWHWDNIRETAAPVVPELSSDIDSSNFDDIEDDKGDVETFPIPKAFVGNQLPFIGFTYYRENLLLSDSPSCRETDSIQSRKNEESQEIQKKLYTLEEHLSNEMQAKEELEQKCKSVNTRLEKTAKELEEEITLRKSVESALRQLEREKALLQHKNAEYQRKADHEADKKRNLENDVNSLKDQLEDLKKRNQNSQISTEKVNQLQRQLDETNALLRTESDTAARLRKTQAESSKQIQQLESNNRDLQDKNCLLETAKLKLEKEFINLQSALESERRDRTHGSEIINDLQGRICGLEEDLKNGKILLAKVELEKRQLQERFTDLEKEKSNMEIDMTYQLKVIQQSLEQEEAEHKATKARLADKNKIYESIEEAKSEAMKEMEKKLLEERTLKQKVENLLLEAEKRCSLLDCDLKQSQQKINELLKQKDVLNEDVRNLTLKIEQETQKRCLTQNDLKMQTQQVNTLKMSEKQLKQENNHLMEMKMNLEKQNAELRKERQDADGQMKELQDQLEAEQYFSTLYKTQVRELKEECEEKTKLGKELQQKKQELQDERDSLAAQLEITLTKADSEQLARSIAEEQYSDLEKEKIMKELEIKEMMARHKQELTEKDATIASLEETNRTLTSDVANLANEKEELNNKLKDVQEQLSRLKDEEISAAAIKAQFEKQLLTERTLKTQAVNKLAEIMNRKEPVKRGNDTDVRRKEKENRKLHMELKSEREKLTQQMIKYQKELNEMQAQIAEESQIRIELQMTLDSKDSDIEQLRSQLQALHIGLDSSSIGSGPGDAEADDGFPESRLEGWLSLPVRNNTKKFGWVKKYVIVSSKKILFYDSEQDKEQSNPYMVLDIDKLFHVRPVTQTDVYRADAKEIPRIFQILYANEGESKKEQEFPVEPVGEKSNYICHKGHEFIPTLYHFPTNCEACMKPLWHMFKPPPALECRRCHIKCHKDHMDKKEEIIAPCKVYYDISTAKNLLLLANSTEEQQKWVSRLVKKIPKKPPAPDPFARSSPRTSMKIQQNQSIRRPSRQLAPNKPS
UniProt P27448: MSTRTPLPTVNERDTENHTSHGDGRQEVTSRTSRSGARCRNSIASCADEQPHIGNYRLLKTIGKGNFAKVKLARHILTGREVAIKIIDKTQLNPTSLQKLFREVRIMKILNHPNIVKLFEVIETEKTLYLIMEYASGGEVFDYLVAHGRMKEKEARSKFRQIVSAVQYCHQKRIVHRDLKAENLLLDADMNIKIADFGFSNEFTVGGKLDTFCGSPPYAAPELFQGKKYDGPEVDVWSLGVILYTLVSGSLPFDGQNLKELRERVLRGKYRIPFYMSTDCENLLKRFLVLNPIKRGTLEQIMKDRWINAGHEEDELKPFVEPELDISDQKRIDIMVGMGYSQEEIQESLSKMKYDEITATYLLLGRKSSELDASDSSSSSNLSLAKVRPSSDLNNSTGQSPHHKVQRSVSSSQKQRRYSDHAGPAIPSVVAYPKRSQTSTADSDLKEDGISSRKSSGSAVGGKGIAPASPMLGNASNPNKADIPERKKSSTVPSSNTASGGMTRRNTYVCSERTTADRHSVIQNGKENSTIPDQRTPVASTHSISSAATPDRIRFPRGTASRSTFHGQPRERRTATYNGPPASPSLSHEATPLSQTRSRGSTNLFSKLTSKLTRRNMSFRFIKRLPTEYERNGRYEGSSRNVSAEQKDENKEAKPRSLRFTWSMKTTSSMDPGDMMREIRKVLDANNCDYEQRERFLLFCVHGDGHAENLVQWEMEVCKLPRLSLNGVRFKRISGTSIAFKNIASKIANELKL
UniProt P36888, whole entry: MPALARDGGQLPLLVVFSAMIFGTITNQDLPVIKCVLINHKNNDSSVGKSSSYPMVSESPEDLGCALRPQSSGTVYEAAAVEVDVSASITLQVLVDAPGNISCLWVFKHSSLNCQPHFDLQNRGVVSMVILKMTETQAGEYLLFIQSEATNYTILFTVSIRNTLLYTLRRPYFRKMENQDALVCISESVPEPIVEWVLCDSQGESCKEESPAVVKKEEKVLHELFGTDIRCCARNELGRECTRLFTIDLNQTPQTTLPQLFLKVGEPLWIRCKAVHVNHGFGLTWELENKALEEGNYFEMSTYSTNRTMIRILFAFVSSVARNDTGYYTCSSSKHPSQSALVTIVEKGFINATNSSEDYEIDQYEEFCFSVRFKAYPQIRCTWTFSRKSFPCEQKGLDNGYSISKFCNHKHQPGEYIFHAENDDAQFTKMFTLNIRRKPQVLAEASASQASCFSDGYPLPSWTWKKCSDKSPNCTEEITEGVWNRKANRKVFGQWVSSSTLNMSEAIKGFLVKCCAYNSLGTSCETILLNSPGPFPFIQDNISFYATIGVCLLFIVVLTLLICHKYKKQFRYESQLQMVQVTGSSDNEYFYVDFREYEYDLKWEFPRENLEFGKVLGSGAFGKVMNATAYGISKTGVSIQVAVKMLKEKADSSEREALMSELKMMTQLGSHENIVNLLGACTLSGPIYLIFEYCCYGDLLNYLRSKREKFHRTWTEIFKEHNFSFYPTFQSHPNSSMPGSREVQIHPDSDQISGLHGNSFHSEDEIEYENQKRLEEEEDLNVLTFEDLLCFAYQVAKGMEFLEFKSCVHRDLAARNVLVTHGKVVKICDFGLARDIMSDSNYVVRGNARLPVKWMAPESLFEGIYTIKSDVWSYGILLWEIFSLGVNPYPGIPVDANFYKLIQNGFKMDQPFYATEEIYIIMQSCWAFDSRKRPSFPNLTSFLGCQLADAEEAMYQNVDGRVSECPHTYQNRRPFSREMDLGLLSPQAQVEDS
UniProt P49137, whole entry, looked up: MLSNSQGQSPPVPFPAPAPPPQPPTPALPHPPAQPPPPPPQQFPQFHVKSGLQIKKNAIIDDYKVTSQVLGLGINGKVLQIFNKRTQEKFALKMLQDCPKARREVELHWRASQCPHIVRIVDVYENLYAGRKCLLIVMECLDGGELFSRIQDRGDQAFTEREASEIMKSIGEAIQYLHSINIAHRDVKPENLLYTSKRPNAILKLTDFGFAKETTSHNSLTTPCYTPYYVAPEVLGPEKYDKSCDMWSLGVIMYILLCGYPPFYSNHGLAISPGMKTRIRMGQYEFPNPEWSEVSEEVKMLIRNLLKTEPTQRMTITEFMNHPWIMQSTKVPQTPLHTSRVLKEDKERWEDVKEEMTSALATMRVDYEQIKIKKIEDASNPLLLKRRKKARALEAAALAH

For orientation: inhibition means the percentage by which the read-out fell short of the control.

SMILES strings stand for the structures.

For the compound `CC(Nc1nc(-c2cccc(N(C)C)c2)cnc1N)c1ccccc1` (racemic), the inhibition turned out to be 57% in [1]; 90.9% in test [2]; 51% in test [3]; 54% in test [4]; 40% in [5]; 49% in test [6]. The inhibition was 99.9% in [7]; 40% in test [8]; 49% in test [9]; 77% in test [10]; 83% in test [11]; 90.8% in [12]. For the same compound, the inhibition in test [13] was determined as 79%; in test [14] it was 74%; in test [15], 67%; in [16], 97.5%; in test [17], 50%; in test [18], 17%. Moreover, the inhibition was 96% in [19], 55% in [20] and 11% in [21].

These data come from ChEMBL document CHEMBL6134888, “Challenging the "Undruggable"─Targeting STAT3 but Identifying Potent TrkA-Targeted Inhibitors” (J Med Chem, 2025).
